Results as given in PubChem BioAssay AID881 (National Center for Advancing Translational Sciences (NCATS), 2007).
This is a selection; strong and weak results do not stand in their true shares. Calls of active or inactive are those of the source. Calls follow the shape of the dose curve; as a rule, active = well fitted inhibition curve with a large enough effect; inconclusive = small, poorly fitted or top-dose-only effect; inactive = no such curve, though single readings can be large or run the other way. A call without a number means that no potency is given here.

Chains of the proteins cited; added tags and fusions are not shown. Lines headed by an entry give the natural chain unless they say otherwise; changes in a name come on top.
UniProt O15296: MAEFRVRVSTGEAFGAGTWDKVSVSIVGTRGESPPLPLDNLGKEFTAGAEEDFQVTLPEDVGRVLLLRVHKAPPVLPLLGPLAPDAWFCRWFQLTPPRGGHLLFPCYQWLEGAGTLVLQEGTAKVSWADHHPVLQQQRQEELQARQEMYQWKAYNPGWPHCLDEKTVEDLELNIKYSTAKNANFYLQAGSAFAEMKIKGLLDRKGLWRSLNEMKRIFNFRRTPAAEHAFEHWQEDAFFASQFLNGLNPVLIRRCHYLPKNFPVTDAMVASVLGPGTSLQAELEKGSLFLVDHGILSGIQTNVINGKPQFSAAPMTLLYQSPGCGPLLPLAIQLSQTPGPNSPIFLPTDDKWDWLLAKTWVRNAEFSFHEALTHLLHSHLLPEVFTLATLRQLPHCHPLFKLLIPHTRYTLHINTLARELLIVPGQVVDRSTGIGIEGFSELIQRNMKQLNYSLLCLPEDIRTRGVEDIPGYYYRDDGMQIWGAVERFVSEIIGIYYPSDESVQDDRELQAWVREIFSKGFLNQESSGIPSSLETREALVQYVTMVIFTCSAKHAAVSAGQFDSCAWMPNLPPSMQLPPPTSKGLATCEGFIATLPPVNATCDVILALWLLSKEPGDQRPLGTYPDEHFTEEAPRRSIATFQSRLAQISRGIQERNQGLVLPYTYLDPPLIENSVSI

Biological target: Polyunsaturated fatty acid lipoxygenase ALOX15B (Homo sapiens) (UniProt O15296)
Assay: qHTS Assay for Inhibitors of 15-hLO-2 (15-human lipoxygenase 2); also: nearly all actives have a fitted effect of over 60% in size
Conditions: purified 15hLO-2, xylenol orange hydroperoxide absorbance; series mostly up to 57.1 µM
Source text: Assay Overview: NIH Molecular Libraries Screening Centers Network [MLSCN] NIH Chemical Genomics Center [NCGC] MLSCN Grant: MH081283-01A1 PI Name: Holman, T.R., University of California, Santa Cruz Human lipoxygenase 15hLO-2 is a member of the closely related lipoxygenase family of enzymes which catalyze the site-specific oxidation of arachidonic acid to various hormone precursor molecules and as such is a candidate for drug development in a variety of disease areas, such as cancer and inflammation. Inhibition of 15hLO-2 activity was screened by utilizing arachidonic acid as a substrate. The extent of hydroperoxide product formation was measured by a secondary chromogenic reaction in which xylenol orange (XO, Sigma-Aldrich, cat. number 39,818-7) reacts with the ferric ions produced from the reaction between the hydroperoxide and ferrous ions. The Fe(III)-XO complex is characterized with red-shifted absorbance at 560 nm. A purified preparation of human 15hLO-2 was supplied by Professor Ted Holman, University of California, Santa Cruz.
Assay Protocol: Buffer: 25 mM Hepes pH 7.5, 0.01% Triton X-100. Reagents/Controls: Buffer in columns 3 and 4 as negative control (no enzyme). Substrate solution: 45 uM arachidonic acid (Sigma-Aldrich, St. Louis, MO) final concentration dispensed throughout the plate. Enzyme: 50 nM 15hLO-2 final concentration in columns 1, 2, 5-48. Column 1 is neutral (100% activity). Column 2 contained pin-transferred titration of NDGA (nordihidroguaiaretic acid, Sigma-Aldrich, N 5023, top concentration 10 mM in DMSO, then 1:2 dilution in duplicate). (Dilution factor: 23 nL into 4 uL.) Chromogenic detection reagent (divalent iron/xylenol orange, Fe-XO): 200 uM xylenol orange plus 300 uM ferrous ammonium sulfate prepared freshly in 50 mM sulfuric acid. Assay Steps: Three uL of enzyme were dispensed to 1536-well Greiner black clear bottom plates. Compounds and controls (23 nL) were transferred via Kalypsys PinTool. The plates were incubated for 15 min at room temperature, and then 1 uL of substrate solution was added to start the reaction. After room temperature incubation for 90 minutes, 4 uL of Fe-XO solution was added to each well followed by a short spin (1000 rpm, 15 sec) and the plates were then incubated for 30 min. The absorbance at 405 and 573 nm were measured using ViewLux (Perkin-Elmer) High-throughput CCD imager and absorbance protocol settings. The 573-to-405 absorbance ratio was used to compute reaction progress.
Potency is read from the fitted curve at half-maximal effect.

Compound	activity change, negative = inhibition	Potency
O=P1(Nc2nc3ccc(Cl)cc3s2)COc2ccccc2O1 (centres undefined)	inactive	
CCOC(=O)NC(Sc1ccccc1)C(Cl)(Cl)Cl (centres undefined)	inactive	
COC(=O)c1cc2c(s1)N=C(c1ccccc1)N(C)P2(=O)N1CCOCC1 (centres undefined)	inactive	
CCC(=O)N1C2C3N(C(=O)CC)C1C1N(C(=O)CC)C(C(N1C(=O)CC)N3C(=O)CC)N2C(=O)CC	inactive	
Cc1cc([N+](=O)[O-])cc([N+](=O)[O-])c1O	inactive	
[N-]=[N+]=Nc1ccc([As](=O)(O)O)cc1	inactive: -8.4% [at 11.4 µM]	
O=C(OC1CN2CCC1CC2)c1cccc(Cl)c1 (centres undefined)	inactive	
c1nnnn1CCn1cnnn1	inactive	
O=P(Nc1nccs1)(c1ccccc1)c1ccccc1	inactive	
C[C@@H](O)COc1ccc([As](=O)(O)O)cc1N	inactive: -2.72% [at 11.4 µM]	
CN1CCC[C@H](OC(=O)C(c2ccccc2)c2ccccc2)C1	inactive: -0.424% [at 11.4 µM]	
O=[N+]([O-])c1cccc2n[nH]nc12	inactive	
CC(=O)N1C2C3N(C(C)=O)C1C1N(C(C)=O)C(C(N1C(C)=O)N3C(C)=O)N2C(C)=O	inactive	
CCc1nc2c(n1)c1c(non1O)c1c2no[n+]1[O-]	inactive	
O=C(CO)Nc1ccc([As](=O)(O)O)cc1	inactive: -3.47% [at 11.4 µM]	
CC(=O)C1=CCCC2CCC1N2 (centres undefined)	inactive: -2.43% [at 0.0915 µM]	
CC1CCN(C(=O)Oc2c(Cl)cc(Cl)c3cccnc23)CC1	inactive	
CN(C(=O)Cc1ccccc1)[C@@H]1CC[C@@]2(CCCO2)C[C@H]1N1CCCC1	inactive	
CCOP(=O)(Nc1ccccc1)OCC	inactive	
CN(C(=O)Cc1ccc(Cl)c(Cl)c1)[C@H]1CCCC[C@@H]1N1CCCC1	inactive	
C(Cc1nn[nH]n1)c1nn[nH]n1	inactive: -1.78% [at 11.4 µM]	
[N-]=[N+]=NCC(O)CN=[N+]=[N-] (centres undefined)	inactive: 4.78% [at 11.4 µM]	
O=[N+]([O-])c1ccc(C[As](=O)(O)O)cc1	inactive: -11.1% [at 11.4 µM]	
NCC[C@@H](N)CSP(=O)(O)O	inactive: -2.44% [at 11.4 µM]	
CC(C)CC(=O)NC(Sc1ccc(Cl)cc1)C(Cl)(Cl)Cl (centres undefined)	inactive	
Oc1ccccc1CNc1ccccn1	inactive	
Cc1c2non([O-])c-2c(C)[n+](=O)[n+]1[O-]	inactive	

Compound	activity change, negative = inhibition	Potency
NC(=O)Nc1cc([As](=O)(O)O)cc(I)c1O	inactive: -1.48% [at 11.4 µM]	
O=C(OC1CN2CCC1CC2)C12CC3CC(CC(C3)C1)C2 (centres undefined)	inactive	
CCN(CC)C(=S)SC(NC=O)C(Cl)(Cl)Cl (centres undefined)	inactive	
[N-]=[N+]=NCC(N)=O	inactive: 12% [at 11.4 µM]	
O=[As]c1ccc(S(=O)(=O)NCCO)cc1 (centres undefined)	inactive: -0.712% [at 11.4 µM]	
CN(N=O)C(=N)N[N+](=O)[O-]	inactive	
O=C(COc1ccccc1)OC1CN2CCC1CC2 (centres undefined)	inactive	
O=C(O)[C@@H](O)c1ccc([As](=O)(O)O)cc1	inactive: -4.27% [at 11.4 µM]	
COP1(=S)c2c(C)nn(CCC#N)c2N=C(c2ccc(F)cc2)N1C (centres undefined)	inactive	
Clc1n[nH]nc1-c1nn[nH][15n]1	inactive	
CN(CCCl)Cc1cc(Cl)c(NC2=NCCN2)c(Cl)c1	inactive	
O=P1(Nc2ccccn2)COc2ccccc2OC1	inactive	
CN(C(=O)Cc1ccc(Cl)c(Cl)c1)[C@@H]1CCCC[C@H]1N1CCCC1	inactive	
Cc1nn(-c2ccccc2)c2c1P(=O)(N1CCOCC1)N(C)C(c1ccccc1)=N2 (centres undefined)	inactive	
Cc1ccc(OCC(=O)OC2CN3CCC2CC3)cc1 (centres undefined)	inactive: -1.36% [at 11.4 µM]	
O=P1(Nc2ccc(Br)cn2)COc2ccccc2OC1	inactive	
O=P1(Nc2ncccn2)COc2ccccc2OC1	inactive	
O=[As](O)(O)c1ccc([As](=O)(O)O)cc1	inactive: -3.87% [at 11.4 µM]	
CCOP1(=S)c2c(C)nn(CCC#N)c2N=C(c2ccccc2F)N1C (centres undefined)	inactive	
O=P(Nc1nccs1)(c1ccccc1)c1nc2ccccc2s1 (centres undefined)		active: 7.94 µM
O=[N+]([O-])c1ccc2c(c1)nnn2O	inactive	
CCOP1(=S)c2c(C)nn(CCC#N)c2N=C(c2ccc(F)cc2)N1C (centres undefined)	inactive	
NC(=O)Nc1ccc([As](=O)(O)O)cc1	inactive	
Cc1cccc(OCC(=O)OC2CN3CCC2CC3)c1 (centres undefined)	inactive	
CN(C(=O)Cc1ccc(Cl)c(Cl)c1)[C@@H]1CC[C@@]2(CCCO2)C[C@H]1N1CCCC1	inactive	
NS(=O)(=O)Cc1ccc([As](=O)(O)O)cc1	inactive: 4.25% [at 11.4 µM]	
O=C(CC(=O)c1ccccc1)O[C@H]1CN2CCC1CC2	inactive: -0.145% [at 11.4 µM]	
